Screening data (PubChem BioAssay)
miR122 inh = miR-122 Renilla sensor signal increase in Huh7, primary screen, miR-122 inhibitor project, cell-based, single point, plate reader; Huh7 miR-122 Renilla luciferase sensor, 48 h; neutral wells = 0, positive control = 100; activation (reporter increase), % at 12.5 µM; 0.3% of 340,000 active; AID 602342, 2012;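 active = mean replicate activation score at least 90 and every replicate individually at or above 90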;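 also: higher luciferase means less miR-122 activity so hits act as miR-122 inhibitors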
Wnt bcat act = Wnt/beta-catenin pathway activators, primary screen, cell-based, plate reader, single point; Wnt/beta-catenin reporter cell assay, activator; activation, % at 9.35 µM; 1.2% of 300,000 active; AID 743398, 2014; in the data active = activation above about 30%, passing the limit was not always enough;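 also: 0% = neutral control wells and 100% = positive control wells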
UUG fidelity = alters start codon recognition fidelity in yeast. S. cerevisiae UUG-firefly luciferase reporter, luminescence/redox ratio. 350,000 tested, 0.13% active. activity score, % at 18.7 µM. AID 602363;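 active means replicate mean at a twofold rise or more, about +100% in these data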;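 further: firefly luciferase made from a UUG start codon reports start codon fidelity; reporter light over untreated wells divided by growth signal over untreated wells; some hits fall short of that in this replicate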
MITF TRPM1 inh = inhibitors of MITF-dependent TRPM1 promoter reporter, primary screen, cell-based, SK-MEL-5, single point, luciferase; 0.83% of 330,000 active; inhibition, % at 12.5 µM; SK-MEL-5 TRPM1 promoter luciferase, 24 h; AID 488899, 2010;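 active = mean inhibition across replicates of 60% or more, whatever share of single replicates reaches that level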
MITF TRPM1 HTS = activators of MITF-driven TRPM1 promoter reporter, primary screen, cell-based, SK-MEL-5, luciferase, single point; activation, % at 12.5 µM; SK-MEL-5 TRPM1-promoter luciferase, 24 h; % of positive control, neutral wells = 0; 0.75% of 300,000 active;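 active = mean activation of at least 80% with every replicate also reaching 80%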;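 also: 0% = neutral control wells and 100% = parthenolide positive control wells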
PGC1a acetyl inh = inhibitors of PGC1a acetylation signal, primary screen, cell-based, U2OS, AlphaScreen, inhibitor mode; AlphaScreen anti-acetyl-lysine; with virally co-expressed GCN5 acetyltransferase; inhibition, % at 15.6 µM; 0.17% of 350,000 active; AID 651687, 2012;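 active = every replicate shows inhibition of at least 40%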;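 also: 0% = neutral control wells and 100% = positive control wells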
An asterisk follows results filed as active; . = no result; [ ] = remark or other dose. Shown are actives, neighbours in structure and some others; about 2.1% of the full set was active somewhere.

miR122 inh	Wnt bcat act	UUG fidelity	MITF TRPM1 inh	MITF TRPM1 HTS	PGC1a acetyl inh	molecule
-1[16.7 µM]	.	-15	.	.	0	Cc1noc(C)c1NC(=O)N(C)C[C@@H]1Oc2ccc(NC(=O)Nc3ccc(F)cc3)cc2C(=O)N([C@@H](C)CO)C[C@@H]1C
-5	32*	-13	-44	49	0	O=C1CCCN1CCC(=O)N1CCCC(CO)(Cc2ccccc2)C1 (stereo not given)
-5	-1	.	13	-9	109*	CSCC(=O)N1CCCC(CO)(Cc2ccccc2C)C1 (stereo not given)
.	19	-9	-32	30	5	COC(=O)c1ccc(NC(=O)c2cc3sccc3n2C)cc1
16	51*	-13	-29	32	0	Cn1c(C(=O)Nc2ccccc2)cc2sccc21
-1	.	-13	-84	88*	-3	COC(=O)Nc1nnc(-c2ccccc2Cl)s1
-2	34*	0	-47	46	2	COc1ccc(-c2nnc(NC(=O)C(C)C)s2)c(OC)c1
.	49*	.	-43	45	.	COC(=O)Nc1nnc(-c2ccccc2OC)s1
7[16.7 µM]	.	4	.	.	-10	COc1ccc(S(=O)(=O)Nc2ccc3c(c2)C(=O)N([C@@H](C)CO)C[C@@H](C)[C@@H](CN(C)C(=O)Nc2ccccc2)OCCCC[C@@H](C)O3)cc1
11	.	-6	-1	1	4	Cc1ccc(OCC(=O)O)c(-n2nc3ccccc3n2)c1
.	104*	.	-90	99*	.	Cc1ccc(OC(=O)c2cccc(S(=O)(=O)N3CCCC3)c2)c(-n2nc3ccccc3n2)c1
4	77*	-13	-64	.	-8	CC(=O)Oc1ccc(C)cc1-n1nc2ccccc2n1
2[16.7 µM]	.	0	.	.	-2	COc1ccc(NC(=O)Nc2ccc3c(c2)C(=O)N([C@@H](C)CO)C[C@H](C)[C@@H](CN(C)C(=O)CCC(F)(F)F)OCCCC[C@H](C)O3)cc1
1[16.7 µM]	.	7	.	.	-1	C[C@H]1CCCCO[C@@H](CN(C)C(=O)C2CCCCC2)[C@@H](C)CN([C@@H](C)CO)C(=O)c2cc(NC(=O)c3ccccc3)ccc2O1
109*	-3	-10	8	-7	-14	CCc1ccc(-c2cc(C)no2)cc1S(=O)(=O)NCc1ccccc1OC
168*	-3	.	-10	12	-7	Cc1cc(-c2ccc(C(C)C)c(S(=O)(=O)NCc3ccco3)c2)on1
8[16.7 µM]	.	-10	.	.	-5	Cc1ccc(-c2ccc3c(c2)O[C@@H](CN(C)C(=O)Nc2ccc(F)cc2)[C@@H](C)CN([C@H](C)CO)S3(=O)=O)cc1
1[16.7 µM]	.	-3	.	.	3	C[C@H]1CN([C@@H](C)CO)C(=O)c2cc(NC(=O)CCC(F)(F)F)ccc2O[C@H]1CN(C)S(=O)(=O)c1ccc(Cl)cc1
.	.	-12	.	.	56*	O=C(CC1CC1)N[C@@H]1CC[C@@H](CCNS(=O)(=O)c2ccc(Cl)cc2)O[C@@H]1CO
101*[16.7 µM]	.	-3	.	.	4	Cc1ccc(S(=O)(=O)NCC[C@@H]2CC[C@@H](NC(=O)c3cnccn3)[C@H](CO)O2)cc1

Record cards, from the list above.
Shown for `C[C@H]1CN([C@@H](C)CO)C(=O)c2cc(NC(=O)CCC(F)(F)F)ccc2O[C@H]1CN(C)S(=O)(=O)c1ccc(Cl)cc1` → miR122 inh = 1[16.7 µM]; Wnt bcat act = .; UUG fidelity = -3; MITF TRPM1 inh = .; MITF TRPM1 HTS = .; PGC1a acetyl inh = 3
Shown for `Cc1ccc(OCC(=O)O)c(-n2nc3ccccc3n2)c1` → miR122 inh = 11; Wnt bcat act = .; UUG fidelity = -6; MITF TRPM1 inh = -1; MITF TRPM1 HTS = 1; PGC1a acetyl inh = 4

The list continues:
miR122 inh	Wnt bcat act	UUG fidelity	MITF TRPM1 inh	MITF TRPM1 HTS	PGC1a acetyl inh	molecule
.	.	8	.	.	62*	O=S(=O)(N[C@@H]1CC[C@@H](CCNS(=O)(=O)c2ccccc2Cl)O[C@H]1CO)c1ccccc1
.	.	-11	.	.	64*	O=C(CC1CC1)N[C@@H]1CC[C@H](CCNS(=O)(=O)c2ccc(Cl)cc2)O[C@H]1CO
2[16.7 µM]	.	0	.	.	4	Cc1ccc(S(=O)(=O)NCC[C@@H]2CC[C@H](NC(=O)c3cnccn3)[C@@H](CO)O2)cc1
.	.	0	.	.	-4	O=C(CC1CC1)N[C@@H]1CC[C@H](CCNS(=O)(=O)c2ccc(F)cc2)O[C@H]1CO
.	.	.	.	.	-1	Cc1ccc(S(=O)(=O)NCC[C@H]2CC[C@@H](NC(=O)CC3CC3)[C@@H](CO)O2)cc1
.	.	.	.	.	-5	CO[C@H]1CN(C)C(=O)c2cc(NC(=O)C3CC3)ccc2OC[C@H](C)N(C(=O)Cc2ccccn2)C[C@H]1C

Look-ups from the results shown:
Entry of `COC(=O)c1ccc(NC(=O)c2cc3sccc3n2C)cc1` under Wnt bcat act: 19
Entry of `CCc1ccc(-c2cc(C)no2)cc1S(=O)(=O)NCc1ccccc1OC` under Wnt bcat act: -3
